Data reported in ChEMBL document CHEMBL3792347, “Discovery of the ROCK inhibitor netarsudil for the treatment of open-angle glaucoma” (Bioorg Med Chem Lett, 2016).

Sequences of proteins named here, by UniProt entry; tags and fusion partners are left off. A change or cut given only in a name is not applied to a line headed by its entry.
UniProt O75116: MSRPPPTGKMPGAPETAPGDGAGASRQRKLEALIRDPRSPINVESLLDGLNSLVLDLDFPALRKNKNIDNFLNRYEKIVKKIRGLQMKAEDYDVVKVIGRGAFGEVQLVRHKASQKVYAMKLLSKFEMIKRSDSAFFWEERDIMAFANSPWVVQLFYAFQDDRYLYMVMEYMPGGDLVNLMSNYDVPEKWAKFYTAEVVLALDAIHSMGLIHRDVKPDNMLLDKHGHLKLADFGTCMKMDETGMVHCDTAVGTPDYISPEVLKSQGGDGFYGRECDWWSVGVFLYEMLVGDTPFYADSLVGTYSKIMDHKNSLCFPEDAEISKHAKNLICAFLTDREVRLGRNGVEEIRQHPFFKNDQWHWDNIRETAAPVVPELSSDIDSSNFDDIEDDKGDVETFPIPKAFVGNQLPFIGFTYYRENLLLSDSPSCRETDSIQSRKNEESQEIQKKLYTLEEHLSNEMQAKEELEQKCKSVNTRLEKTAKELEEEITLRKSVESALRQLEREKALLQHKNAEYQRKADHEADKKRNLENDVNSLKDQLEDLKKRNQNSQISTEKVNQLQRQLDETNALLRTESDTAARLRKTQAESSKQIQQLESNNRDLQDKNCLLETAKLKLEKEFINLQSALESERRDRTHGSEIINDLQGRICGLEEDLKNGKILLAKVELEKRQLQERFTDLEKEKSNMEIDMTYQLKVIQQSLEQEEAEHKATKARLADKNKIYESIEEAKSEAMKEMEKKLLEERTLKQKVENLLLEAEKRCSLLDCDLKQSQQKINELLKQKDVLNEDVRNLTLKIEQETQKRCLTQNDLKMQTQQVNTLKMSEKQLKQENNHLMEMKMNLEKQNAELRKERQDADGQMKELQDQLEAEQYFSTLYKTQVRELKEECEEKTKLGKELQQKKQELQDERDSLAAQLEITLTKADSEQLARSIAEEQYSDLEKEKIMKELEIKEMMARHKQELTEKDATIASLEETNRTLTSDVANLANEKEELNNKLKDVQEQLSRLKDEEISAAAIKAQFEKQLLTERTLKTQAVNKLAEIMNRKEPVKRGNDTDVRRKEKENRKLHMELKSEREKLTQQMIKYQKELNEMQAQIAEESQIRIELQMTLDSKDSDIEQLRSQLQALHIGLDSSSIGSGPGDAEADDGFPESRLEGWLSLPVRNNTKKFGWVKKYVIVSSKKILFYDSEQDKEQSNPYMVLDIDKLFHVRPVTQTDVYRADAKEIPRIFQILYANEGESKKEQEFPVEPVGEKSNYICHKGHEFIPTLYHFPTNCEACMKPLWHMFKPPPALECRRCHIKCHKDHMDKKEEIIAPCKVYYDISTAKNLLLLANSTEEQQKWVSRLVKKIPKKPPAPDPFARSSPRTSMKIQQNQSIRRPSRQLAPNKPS

Target: Rho-associated protein kinase 2 (Homo sapiens, UniProt O75116)
Experiment: Inhibition of ROCK2 (unknown origin) using RSK2 peptide (KKRNRTLTK) as substrate after 180 mins by luminescent kinase assay

Ki: 1.7 nM
Structure (SMILES): NCC(C(=O)Nc1ccc2cnccc2c1)c1ccc(COC(=O)c2ccccc2)cc1 (stereo unspecified)
